From ChEMBL document CHEMBL1130012 (J Med Chem, 1997)

By UniProt entry, the sequences of proteins in these tests, tags left out.
UniProt P10980, whole entry: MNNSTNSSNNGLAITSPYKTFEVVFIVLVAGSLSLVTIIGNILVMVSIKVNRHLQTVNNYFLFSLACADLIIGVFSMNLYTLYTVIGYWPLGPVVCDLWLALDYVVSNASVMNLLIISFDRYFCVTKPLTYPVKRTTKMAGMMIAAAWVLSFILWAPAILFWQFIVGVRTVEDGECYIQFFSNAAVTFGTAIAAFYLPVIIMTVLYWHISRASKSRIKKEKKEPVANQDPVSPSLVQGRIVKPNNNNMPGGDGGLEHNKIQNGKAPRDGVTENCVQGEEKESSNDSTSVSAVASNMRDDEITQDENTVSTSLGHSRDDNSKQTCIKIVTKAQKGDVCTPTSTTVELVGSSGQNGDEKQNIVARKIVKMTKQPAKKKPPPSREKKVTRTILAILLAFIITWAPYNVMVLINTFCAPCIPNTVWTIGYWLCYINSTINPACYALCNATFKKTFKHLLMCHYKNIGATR

Target: Muscarinic acetylcholine receptor M2 (Rattus norvegicus, UniProt P10980)
Experiment: Binding affinity towards rat Muscarinic acetylcholine receptor M2 was determined

With `CN1[C@@H]2C[C@@H](OC(=O)[C@H](CO)c3ccccc3)C[C@H]1[C@@H]1O[C@@H]12` [SCOPOLAMINE] the Ki was 4.57 nM.
